Assay results reported in patent publication US7871982B2, “Lincomycin derivatives and antimicrobial agents comprising the same as active ingredient” (Meiji Seika Kaisha, Ltd., priority 2005, dated 2011).

Tests used:
Assay in all cases: Antimicrobial activity, MIC against pneumococci (agar dilution)
Format in all cases: cell-based
S. pneumoniae 1820 = details: Streptococcus pneumoniae, 1820, read-out: minimal inhibitory concentration (MIC)
Description: (§1) For representative compounds among lincomycin derivatives according to the present invention, the minimal inhibitory concentration (MIC, μg/ml) against various pneumococci was measured according to the method described in CHEMOTHERAPY, vol. 16, No. 1, 99, 1968. Sensitivity disk agar-N+5% horse blood was used as the medium for the measurement. The amount of bacteria inoculated was 10^6 CFU/ml. In Table 1, CLDM represents clindamycin.

S. pneumoniae 1913 = details: Streptococcus pneumoniae, 1913, read-out: minimal inhibitory concentration (MIC)
Description: as §1

S. pneumoniae 225 = details: Streptococcus pneumoniae, 225, read-out: minimal inhibitory concentration (MIC)
Description: as §1

S. pneumoniae DPI Type[…] = details: Streptococcus pneumoniae, read-out: minimal inhibitory concentration (MIC)
Description: as §1

S. pneumoniae IP692 = details: Streptococcus pneumoniae, IP692, read-out: minimal inhibitory concentration (MIC)
Description: as §1

S. pneumoniae PRC-206 = details: Streptococcus pneumoniae, PRC206, read-out: minimal inhibitory concentration (MIC)
Description: as §1

S. pneumoniae PRC-53 = details: Streptococcus pneumoniae, PRC53, read-out: minimal inhibitory concentration (MIC)
Description: as §1

S. pneumoniae PRC0-91 = details: Streptococcus pneumoniae, PRC091, read-out: minimal inhibitory concentration (MIC)
Description: as §1

S. pneumoniae TH-662 = details: Streptococcus pneumoniae, TH662, read-out: minimal inhibitory concentration (MIC)
Description: as §1

S. pneumoniae TH-96 = details: Streptococcus pneumoniae, TH96, read-out: minimal inhibitory concentration (MIC)
Description: as §1

MIC (S. pneumoniae 1820): 256 µg/mL (≈ 602 µM) | MIC (S. pneumoniae 1913): 256 µg/mL (≈ 602 µM) | MIC (S. pneumoniae 225): 256 µg/mL (≈ 602 µM) | MIC (S. pneumoniae DPI Type[…]): 0.13 µg/mL (≈ 0.306 µM) | MIC (S. pneumoniae IP692): 0.13 µg/mL (≈ 0.306 µM) | MIC (S. pneumoniae PRC-206): 256 µg/mL (≈ 602 µM) | MIC (S. pneumoniae PRC-53): 0.13 µg/mL (≈ 0.306 µM) | MIC (S. pneumoniae PRC0-91): 256 µg/mL (≈ 602 µM) | MIC (S. pneumoniae TH-662): 256 µg/mL (≈ 602 µM) | MIC (S. pneumoniae TH-96): 0.13 µg/mL (≈ 0.306 µM)
Compound: CCC[C@@H]1C[C@@H](C(=O)N[C@@H]([C@H]2O[C@H](SC)[C@H](O)[C@@H](O)[C@H]2O)[C@H](C)Cl)N(C)C1 [CLDM, clindamycin, reference compound]

Values after ≈ are worked out from the molar mass of the structure shown.
